Patent US6465433B1, “Boronic ester and acid compounds, synthesis and uses” (Millennium Pharmaceuticals, Inc., priority 1994, dated 2002)

Columns and labels:
[1] = target: SDS-activated 20S proteasome from rabbit muscle (Oryctolagus cuniculus, UniProt G1SU71+G1T4Q9); test: Kinetic assay: inhibition of the 20S proteasome; type: biochemical; settings: read-out: 20S Ki, Table II, substrate Suc-LLVY-AMC
C2C12 cells = test: Inhibition of protein degradation in C2C12 cells; settings: read-out: IC50, inhibition of protein degradation in C2C12 cells; 35S-methionine labelled cells; percent decrease in TCA soluble radioactivity; media with 50% serum

| SMILES | Ki [1] [nM] | IC50 (C2C12 cells) [nM] |
| --- | --- | --- |
| Cc1ccc(S(=O)(=O)N[C@@H](Cc2cccc3ccccc23)C(=O)N[C@@H](CC(C)C)B(O)O)cc1 | 0.17 | – |
| CC(C)C[C@H](NC(=O)[C@H](Cc1cccc2ccccc12)N(C)C(=O)OCc1ccccc1)B(O)O | 0.95 | 950 |
| CC(C)C[C@H](NC(=O)[C@H](Cc1ccc(OCc2ccccn2)cc1)NC(=O)N1CCOCC1)B(O)O | 0.2 | – |
| CC(C)CC(NC(=O)C1CCC(=O)N1)B(O)O (stereo not shown) | 480 | – |

Further lines, results first:

| Ki [1] [nM] | IC50 (C2C12 cells) [nM] | SMILES |
| --- | --- | --- |
| 0.13 | 106 | CC(=O)N[C@@H](Cc1cccc2ccccc12)C(=O)N[C@@H](CC(C)C)B(O)O |
| 0.022 | 240 | CC(=O)N[C@@H](CC(C)C)C(=O)N[C@@H](Cc1cccc2ccccc12)C(=O)N[C@@H](CC(C)C)B(O)O |
| 72.5 | – | CC(C)C[C@@H](NC(=O)[C@H](Cc1cccc2ccccc12)NC(=O)N1CCOCC1)B(O)O |
